## Apparent affinities of Ab-14 variants for a coronavirus HR2 peptide

The measurements come from Engelhart et al. 2022 (doi:10.1038/s41597-022-01779-4) through the FLAb antibody collection.

Target: peptide PDVDLGDISGINAS, taken from heptad repeat 2 (HR2) of SARS-CoV-2 spike.

Parent: Ab-14, a human scFv built as VH, a 15-residue (Gly4Ser)3 linker, VL. Only the CDRs of the heavy chain vary.
VH: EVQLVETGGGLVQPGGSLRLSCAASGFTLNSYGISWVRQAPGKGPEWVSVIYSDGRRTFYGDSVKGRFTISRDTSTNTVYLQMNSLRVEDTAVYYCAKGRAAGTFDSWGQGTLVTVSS
VL: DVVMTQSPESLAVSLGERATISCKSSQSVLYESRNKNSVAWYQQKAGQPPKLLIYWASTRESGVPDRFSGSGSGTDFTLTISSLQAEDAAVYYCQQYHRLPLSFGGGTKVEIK

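The parent was found by panning a naive human phage display library on the peptide. Library AAYL49 holds single substitutions and randomly drawn double and triple substitutions in the CDRs. Affinity was read by AlphaSeq, a pooled yeast mating assay with surface-displayed partners. Mating (16 h, 30 °C) was followed by selection of diploids and sequencing of their barcodes. Scores were corrected for input abundance and mapped to Kd with protein pairs of known affinity run in the same pool. Mating was done three times.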

Each variant's VH is given in full.
Values are log10 of the apparent Kd in nM; lower means stronger binding.
A mean of the replicates is given; it leaves out those without a signal.
Where no diploid with the target was found in that replicate, the entry reads "n.d.": below detection, most likely a poor binder, though not proof of it.
Nonspecific signal, from three strains lacking the peptide, appeared in 15% of pairings of library AAYL49, centred on 4.06 (5% of these signals below 2.83); values are not corrected for it. The control count says in how many pairings with the empty strains this scFv gave a signal, with their mean in brackets.

VH,"log10 Kd, replicates",mean log10 Kd (nM),control signals
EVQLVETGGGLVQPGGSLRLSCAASLFTLQSYVISWVRQAPGKGPEWVSVIYSDGRRTFYGDSVKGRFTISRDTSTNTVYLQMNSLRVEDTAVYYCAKGRAAGTFDSWGQGTLVTVSS,n.d. / n.d. / n.d.,n.d.,2 of 9 (3.75)
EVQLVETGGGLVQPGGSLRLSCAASGFTLNSYKISWVRQAPGKGPEWVSVIVSDGRRTFYGDSVKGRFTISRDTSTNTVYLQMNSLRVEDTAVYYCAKGRAAGTFDSWGQGTLVTVSS,n.d. / 2.90 / n.d.,2.90,2 of 9 (4.15)
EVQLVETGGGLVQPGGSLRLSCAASGFTLNSYGISWVRQAPGKGPEWVSSIYSDGRRTFYGDSMKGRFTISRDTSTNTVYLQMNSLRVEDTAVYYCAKGRMAGTFDSWGQGTLVTVSS,n.d. / n.d. / n.d.,n.d.,0 of 9
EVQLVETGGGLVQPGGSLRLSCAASGFTLNSYGISWVRQAPGKGPEWVSVIYSDWRRHCYGDSVKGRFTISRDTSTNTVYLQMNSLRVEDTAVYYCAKGRAAGTFDSWGQGTLVTVSS,n.d. / n.d. / n.d.,n.d.,6 of 9 (4.48)
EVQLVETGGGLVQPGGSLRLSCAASWFTLASYGISWVRQAPGKGPEWVSVIYSDGRRTFYGDSVKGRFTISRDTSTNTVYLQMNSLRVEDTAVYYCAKGRAAGTKDSWGQGTLVTVSS,5.11 / n.d. / n.d.,5.11,3 of 9 (4.15)
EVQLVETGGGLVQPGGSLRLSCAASGFTLNSSGISWVRQAPGKGPEWVSVIPSDGRRTFYGDSVKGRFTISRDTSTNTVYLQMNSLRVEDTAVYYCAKGRAAGTFDSWGQGTLVTVSS,n.d. / n.d. / 4.37,4.37,1 of 9 (3.40)
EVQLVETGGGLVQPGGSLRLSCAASGFTLNSYGISWVRQAPGKGPEWVSVIYSDGRRTFYGDSVKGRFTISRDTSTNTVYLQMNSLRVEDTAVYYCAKGRAACTMDSWGQGTLVTVSS,n.d. / n.d. / n.d.,n.d.,0 of 9
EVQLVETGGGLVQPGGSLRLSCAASGFTLVSYGISWVRQAPGKGPEWVSVIYSDGRRTFYGDSVKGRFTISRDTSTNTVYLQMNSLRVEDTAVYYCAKGRKAGSFDSWGQGTLVTVSS,n.d. / n.d. / 4.20,4.20,0 of 9
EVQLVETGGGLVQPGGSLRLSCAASWFTLNSYGISWVRQAPGKGPEWVSVIYSDGRRTFYGDIVKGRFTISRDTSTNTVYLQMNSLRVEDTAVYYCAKGRAAGTFDSWGQGTLVTVSS,n.d. / n.d. / n.d.,n.d.,0 of 9
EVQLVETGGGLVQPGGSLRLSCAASGFTLNSYGISWVRQAPGKGPEWVSVIYSDGRRTFYQDSVQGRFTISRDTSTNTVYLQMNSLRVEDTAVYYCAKGRAAGTFDSWGQGTLVTVSS,2.31 / 2.47 / 2.19,2.32,0 of 9
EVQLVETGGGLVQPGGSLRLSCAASGFTLNSTGISWVRQAPGKGPEWVSVIYGDGRRTFYGHSVKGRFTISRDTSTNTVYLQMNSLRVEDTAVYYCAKGRAAGTFDSWGQGTLVTVSS,4.09 / 5.20 / n.d.,4.65,4 of 9 (5.18)
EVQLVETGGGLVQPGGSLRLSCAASGFTLNSYGINWVRQAPGKGPEWVSVIYSDGPRTAYGDSVKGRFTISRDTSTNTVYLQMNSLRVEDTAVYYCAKGRAAGTFDSWGQGTLVTVSS,n.d. / n.d. / n.d.,n.d.,1 of 9 (3.58)
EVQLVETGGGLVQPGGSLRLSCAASGFTLNSYGISWVRQAPGKGPEWVSVIYSDGRRTFYGDSVKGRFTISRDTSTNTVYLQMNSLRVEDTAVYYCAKGVAADTFDSWGQGTLVTVSS,0.49 / 1.10 / 1.26,0.95,0 of 9
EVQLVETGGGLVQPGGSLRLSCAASGFTLNSYGISWVRQAPGKGPEWVSVIYSDGRRTFYGDSVKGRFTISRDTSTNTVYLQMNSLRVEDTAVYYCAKHRAAGFFDSWGQGTLVTVSS,n.d. / n.d. / n.d.,n.d.,4 of 9 (4.70)
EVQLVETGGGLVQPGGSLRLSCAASGFTLNSYGQSWVRQAPGKGPEWVSVIYSDGRRTFYGDSVKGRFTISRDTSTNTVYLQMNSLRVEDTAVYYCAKPRAAGTPDSWGQGTLVTVSS,n.d. / n.d. / n.d.,n.d.,0 of 9
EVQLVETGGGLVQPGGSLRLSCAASGFTLNSYGIAWVRQAPGKGPEWVSVIYSDGRRTFYGDSVKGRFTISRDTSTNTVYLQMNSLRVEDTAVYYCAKGRAAGTFKSWGQGTLVTVSS,n.d. / n.d. / n.d.,n.d.,1 of 9 (2.79)
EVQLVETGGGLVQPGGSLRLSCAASGFTLNSYGIGWVRQAPGKGPEWVSVIYSDGRRTFYGDSVKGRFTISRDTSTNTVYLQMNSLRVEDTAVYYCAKGRANSTFDSWGQGTLVTVSS,n.d. / n.d. / n.d.,n.d.,3 of 9 (3.60)
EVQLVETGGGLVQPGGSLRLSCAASGFTLNSYGISWVRQAPGKGPEWVSVIYVDGRRTFYGDSVRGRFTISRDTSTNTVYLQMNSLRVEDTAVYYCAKGRATGTFDSWGQGTLVTVSS,n.d. / n.d. / n.d.,n.d.,1 of 9 (3.40)
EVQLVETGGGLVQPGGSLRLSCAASGFTLNSYGISWVRQAPGKGPEWVSRIYSDGRRTFYGDSNKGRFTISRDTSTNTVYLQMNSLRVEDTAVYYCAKGRAAGDFDSWGQGTLVTVSS,n.d. / n.d. / n.d.,n.d.,1 of 9 (3.63)
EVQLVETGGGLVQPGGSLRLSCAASIFTLASYGISWVRQAPGKGPEWVSVIYSDGRRTFYKDSVKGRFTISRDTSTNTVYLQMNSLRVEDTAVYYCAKGRAAGTFDSWGQGTLVTVSS,3.97 / 2.72 / 3.90,3.53,3 of 9 (4.39)
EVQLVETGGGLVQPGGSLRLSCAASGQTLNSYGISWVRQAPGKGPEWVSVIYSDGRRTFYGDSDKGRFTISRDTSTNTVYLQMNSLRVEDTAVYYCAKKRAAGTFDSWGQGTLVTVSS,3.22 / n.d. / n.d.,3.22,1 of 9 (4.10)

3 of these entries, quoted again:

VH,"log10 Kd, replicates",mean log10 Kd (nM),control signals
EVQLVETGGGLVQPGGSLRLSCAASGFTLNSYGIAWVRQAPGKGPEWVSVIYSDGRRTFYGDSVKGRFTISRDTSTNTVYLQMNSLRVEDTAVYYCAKGRAAGTFKSWGQGTLVTVSS,n.d. / n.d. / n.d.,n.d.,1 of 9 (2.79)
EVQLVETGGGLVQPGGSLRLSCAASGFTLNSYGIGWVRQAPGKGPEWVSVIYSDGRRTFYGDSVKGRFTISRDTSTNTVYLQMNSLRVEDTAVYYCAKGRANSTFDSWGQGTLVTVSS,n.d. / n.d. / n.d.,n.d.,3 of 9 (3.60)
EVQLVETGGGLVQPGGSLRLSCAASGFTLNSSGISWVRQAPGKGPEWVSVIPSDGRRTFYGDSVKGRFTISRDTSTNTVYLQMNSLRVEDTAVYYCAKGRAAGTFDSWGQGTLVTVSS,n.d. / n.d. / 4.37,4.37,1 of 9 (3.40)